Experimental data taken from ChEMBL document CHEMBL3621114, “Design and Synthesis of Non-Peptide, Selective Orexin Receptor 2 Agonists” (J Med Chem, 2015).

Chains of the proteins cited; added tags and fusions are not shown.
UniProt O43613, whole entry: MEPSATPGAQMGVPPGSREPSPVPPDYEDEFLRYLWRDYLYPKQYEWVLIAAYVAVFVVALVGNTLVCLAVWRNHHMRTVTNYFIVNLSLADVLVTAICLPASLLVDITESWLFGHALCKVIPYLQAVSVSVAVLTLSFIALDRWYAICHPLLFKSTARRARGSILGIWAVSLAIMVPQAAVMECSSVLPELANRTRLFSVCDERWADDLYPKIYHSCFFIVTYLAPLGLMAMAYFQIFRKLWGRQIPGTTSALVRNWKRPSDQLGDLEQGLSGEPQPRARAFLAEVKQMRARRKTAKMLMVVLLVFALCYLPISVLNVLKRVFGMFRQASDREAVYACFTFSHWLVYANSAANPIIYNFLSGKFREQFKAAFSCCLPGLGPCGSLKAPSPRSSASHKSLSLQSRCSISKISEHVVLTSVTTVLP

Legend:
[1] = molecular target: T1, Orexin/Hypocretin receptor type 1 (Homo sapiens, UniProt O43613); experiment: Agonist activity at human OX1R expressed in CHOK1 cells by calcium mobilization assay; format: functional, cell-based, CHO-K1
[2] = molecular target: T1, Orexin/Hypocretin receptor type 1; experiment: biochemical

Compound: COc1ccc(-c2cccc(C(=O)N(C)C)c2)cc1S(=O)(=O)Nc1cccc(NCCNC(=O)c2cccc(C)c2)c1
- EC50 [1]: 1620 nM
- Ki [2]: 770 nM
